Measurements published in patent US6187782A, “Morphinane derivatives and medicinal use thereof” (dated 2001).

Tests used:
opioid ε-receptor [1] = conditions: read-out: Ke Value; Ke=[Concentration of Antagonist Added]/(DR-1); β-endorphin as agonist, about 15 minutes after addition of test compound
ddy mice [2] = test: Analgesic Activity Test Using the Acetic Acid-induced Writhing Method; conditions: subcutaneous, 15 minutes before acetic acid (0.6% i.p.); ddy mice 5 weeks old
opioid ε-receptor [3] = conditions: concentration of added compound at which the inhibitory effect reached plateau
ddy mice [4] = test: Analgesic Activity Test Using the Hot Plate Method; conditions: subcutaneous, 30 minutes before measuring; cut-off 30 seconds; ddy mice 5 weeks old

SMILES | Kb (opioid ε-receptor [1]) | Concentration of Compound (opioid ε-receptor [3]) | other results
O=C(NCCc1ccccc1)[C@@H]1C[C@@]23C=C[C@]1(O)[C@@H]1Oc4c(O)ccc5c4[C@@]12CCN(CC1CC1)[C@@H]3C5 | 830 pM |  | 
O=C(NCc1ccccc1)[C@H]1C[C@@]23C=C[C@]1(O)[C@@H]1Oc4c(O)ccc5c4[C@@]12CCN(CC1CC1)[C@@H]3C5 | 560 pM |  | 
CO[C@]12C=C[C@@]3(C[C@@H]1NC(=O)CCCCc1ccccc1)[C@H]1Cc4ccc(O)c5c4[C@@]3(CCN1CC1CC1)[C@H]2O5 | 830 pM |  | 
O=C(NCCc1ccccc1)[C@H]1C[C@@]23C=C[C@]1(O)[C@@H]1Oc4c(O)ccc5c4[C@@]12CCN(CC1CC1)[C@@H]3C5 |  | 2.5 µM | ED50 Value (analgesic activity, acetic acid writhing) (ddy mice [2]): 238.8 μg/kg body weight; ED50 of the analgesic activity (hot plate) (ddy mice [4]): 2.64 mg/kg body weight
CN(CCc1ccccc1)C(=O)[C@H]1C[C@@]23CC[C@]1(O)[C@@H]1Oc4c(O)ccc5c4[C@@]12CCN(CC1CC1)[C@@H]3C5 |  | 2.2 µM | 
CN(CCc1ccccc1)C(=O)[C@H]1C[C@@]23C=C[C@]1(O)[C@@H]1Oc4c(O)ccc5c4[C@@]12CCN(CCc1ccccc1)[C@@H]3C5 |  | 1.0 µM | 
O=C(NCCCCc1ccccc1)[C@@H]1C[C@@]23C=C[C@]1(O)[C@@H]1Oc4c(O)ccc5c4[C@@]12CCN(CC1CC1)[C@@H]3C5 | 410 pM |  | 
CO[C@]12C=C[C@@]3(C[C@H]1NC(=O)CCCCc1ccccc1)[C@H]1Cc4ccc(O)c5c4[C@@]3(CCN1CC1CC1)[C@H]2O5 | 180 pM |  | 
O=C(NCCCc1ccccc1)[C@H]1C[C@@]23C=C[C@]1(O)[C@@H]1Oc4c(O)ccc5c4[C@@]12CCN(CC1CC1)[C@@H]3C5 | 710 pM |  | 
CN(CCc1ccccc1)C(=O)[C@H]1C[C@@]23C=C[C@]1(O)[C@@H]1Oc4c(O)ccc5c4[C@@]12CCN(CC1CC1)[C@@H]3C5 |  | 1.0 µM | ED50 Value (analgesic activity, acetic acid writhing) (ddy mice [2]): 17.7 μg/kg body weight
O=C(NCCCCc1ccccc1)[C@H]1C[C@@]23C=C[C@]1(O)[C@@H]1Oc4c(O)ccc5c4[C@@]12CCN(CC1CC1)[C@@H]3C5 | 510 pM |  | 
C=CCNC(=O)[C@H]1C[C@@]23C=C[C@]1(O)[C@@H]1Oc4c(O)ccc5c4[C@@]12CCN(CC1CC1)[C@@H]3C5 | 1700 pM |  | 
